Laboratory results taken from ChEMBL document CHEMBL1139722, “N',2-diphenylquinoline-4-carbohydrazide based NK3 receptor antagonists” (Bioorg Med Chem Lett, 2006).

By UniProt entry, the sequences of proteins in these tests, tags left out.
UniProt P29371, whole entry: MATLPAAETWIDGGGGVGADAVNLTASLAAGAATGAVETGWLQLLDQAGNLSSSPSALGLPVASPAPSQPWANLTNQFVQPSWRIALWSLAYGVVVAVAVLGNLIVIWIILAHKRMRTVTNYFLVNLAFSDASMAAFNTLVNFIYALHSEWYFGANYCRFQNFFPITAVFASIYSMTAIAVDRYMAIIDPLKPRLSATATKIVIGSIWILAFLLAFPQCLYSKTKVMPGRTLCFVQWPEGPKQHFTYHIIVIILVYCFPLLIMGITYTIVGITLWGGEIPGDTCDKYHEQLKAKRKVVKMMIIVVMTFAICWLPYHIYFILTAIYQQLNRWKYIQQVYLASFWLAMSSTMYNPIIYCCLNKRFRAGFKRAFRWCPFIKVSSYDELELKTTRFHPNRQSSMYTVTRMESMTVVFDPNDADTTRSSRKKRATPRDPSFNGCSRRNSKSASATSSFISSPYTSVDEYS

Molecular target: Neuromedin-K receptor (Homo sapiens, UniProt P29371)
Assay: Displacement of [125I]neurokinin B from cloned human NK3 receptor expressed in CHO cells
Type: cell-based

CC[C@H](NC(=O)c1c(O)c(-c2ccccc2)nc2ccccc12)c1ccccc1 [TALNETANT]
IC50: 2.4 nM (antagonist)
